Data on one molecule can be found in patent US20230129034A1, “TREATMENT OF DISEASE WITH ESTERS OF SELECTIVE RXR AGONISTS” (Io Therapeutics, Inc., priority 2017, published 2023).

Molecules are shown by their SMILES.

The test concerns the target T1, RXRβ (Homo sapiens, UniProt P28702).
T1 construct: an expression construct including a full length RXRα, RXRβ, or RXRy; expressed in transfected cells; host or cells: CV-1
T1 sequence (P28702 1-533): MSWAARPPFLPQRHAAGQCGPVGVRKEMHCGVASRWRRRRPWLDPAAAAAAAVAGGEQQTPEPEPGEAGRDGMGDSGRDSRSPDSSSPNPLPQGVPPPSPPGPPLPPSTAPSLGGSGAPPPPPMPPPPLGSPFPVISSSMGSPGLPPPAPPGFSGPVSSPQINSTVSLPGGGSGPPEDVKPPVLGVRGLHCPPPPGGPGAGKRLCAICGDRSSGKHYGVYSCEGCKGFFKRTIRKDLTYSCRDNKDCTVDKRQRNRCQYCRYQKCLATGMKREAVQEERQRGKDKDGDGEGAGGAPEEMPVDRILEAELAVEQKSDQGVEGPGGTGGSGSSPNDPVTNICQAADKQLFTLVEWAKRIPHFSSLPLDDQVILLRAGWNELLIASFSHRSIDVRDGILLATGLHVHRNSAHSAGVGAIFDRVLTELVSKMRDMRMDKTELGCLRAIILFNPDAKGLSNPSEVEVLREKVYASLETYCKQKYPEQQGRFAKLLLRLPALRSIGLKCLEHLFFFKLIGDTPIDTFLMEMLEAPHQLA
Kind of test: RXR homodimer transactivation assay (rCRBPII/RXRE-tk-Luc reporter, CV-1 cells). It is filed as cell-based.

On to `CC(/C=C/[C@@H]1C[C@]1(C)c1ccc2c(c1)C(C)(C)CCC2(C)C)=C\C(=O)O` [IRX4204, 3,7-dimethyl-6(S),7(S)-methano,7-[1,1,4,4-tetramethyl-1,2,3,4-tetrahydronaphth-7-yl]2(E),4(E) heptadienoic acid], for which the “Efficacy (% of 1 µM IRX4204) RXRβ” value is reported as 0.47 ±0.05 100 % of 1 µM IRX4204.
